The text below walks through data of patent publication US20240218011A1, “GLUCOCORTICOID RECEPTOR AGONISTS AND CONJUGATES THEREOF” (FireFly Bio, Inc., priority 2022, published 2024).

Amino acid sequences for entries named in this document (tags omitted). Residues count along the entry.
UniProt P04150, 524-777 limits assumed: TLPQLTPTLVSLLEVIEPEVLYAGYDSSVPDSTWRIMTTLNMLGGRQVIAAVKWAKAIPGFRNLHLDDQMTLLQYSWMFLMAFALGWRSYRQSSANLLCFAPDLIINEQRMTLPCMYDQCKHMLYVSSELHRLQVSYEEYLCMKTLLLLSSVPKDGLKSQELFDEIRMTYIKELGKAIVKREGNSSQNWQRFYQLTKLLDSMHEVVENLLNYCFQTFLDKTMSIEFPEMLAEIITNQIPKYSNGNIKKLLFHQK

This assay concerns the target Glucocorticoid Receptor (GR) (Homo sapiens, UniProt P04150). The assay is described as follows: GR reporter assay (GR-GAL4 Reporter (Luc)-HEK293 cells, Steady-Glo luciferase). It is filed as cell-based. Particulars: read-out: GR reporter agonist, 24 hours. In general terms: A reporter such as luciferase makes a cellular process visible.

Structures are written as SMILES.

For the molecule `C[C@]12C=CC(=O)C=C1CC[C@@H]1[C@@H]2[C@@H](O)C[C@@]2(C)[C@H]1C[C@H]1O[C@@H](c3ccccc3)O[C@]12C(=O)CO`, the EC50 is 2.8 nM.
